# Patent publication US10406238B2, “Ligand ionophore conjugates” (PURDUE RESEARCH FOUNDATION, priority 2015, dated 2019)
# Test system: KB cells
# Experiment: Confocal microscopy for endosomal release in KB cells
# Type: cell-based, human
# Conditions: 200 nM 1 with 400 nM folate-Cy5 21-mer oligonucleotide 4, FIG. 4
structure (smiles),measurement,value
CO[C@@H]1C[C@@H](C[C@H]2CC[C@H](C)C([C@@H](C)C(=O)OCCSSC[C@H](NC(=O)[C@H](CC(=O)O)NC(=O)[C@H](CC(=O)O)NC(=O)[C@H](CCCNC(=N)N)NC(=O)[C@H](CC(=O)O)NC(=O)CC[C@H](NC(=O)c3ccc(NCc4cnc5nc(N)[nH]c(=O)c5n4)cc3)C(=O)O)C(=O)O)O2)O[C@]2(O[C@@](C)(C3CC[C@@](C)([C@@H]4O[C@@H]([C@@H]5O[C@@](O)(CO)[C@H](C)C[C@@H]5C)C[C@@H]4C)O3)C[C@H]2C)[C@@H]1C (stereo partly shown) [conjugate 1],time of swelling of smaller endosomes and release of Cy5 dye labeled oligonucleotide,2 to 4 h
